Paper PMC3887211, “Automethylation Activities within the Mixed Lineage Leukemia-1 (MLL1) Core Complex Reveal Evidence Supporting a “Two-active Site” Model for Multiple Histone H3 Lysine 4 Methylation” (The Journal of Biological Chemistry, 2013)

Molecular target: human MLL1 construct, amino acid residues 3745-3969 (MLL^3745) (human) (UniProt Q03164)

full-length unmodified histone H3 protein (from UniProt P68431 1-136) (natural protein)
reduction of the relative intensity of the Ash2L methylation band (fluorogram densitometry), MLL1 with WRA, with unmodified full-length histone H3 against no histone H3: 99%
reduction of the relative intensity of the MLL1 automethylation band (fluorogram densitometry), MLL1 with WRA, with unmodified full-length histone H3 against no histone H3: 95%
